In this assay the test system is human PBMC cultures. Description: Induction of CD69 activation marker on immune cell subsets in PBMC cultures (Trametes versicolor study). Format: cell-based. The note with it: 24 h, positive controls LPS 10 ng/mL, IL-2 100 IU/mL, mean±SD. On the procedure: Peripheral venous blood was drawn from three healthy human donors upon written informed consent, as approval by the Sky Lakes Medical Center Institutional Review Board, Federalwide Assurance 2603. The blood was drawn into heparin vacutainer vials, and the peripheral blood mononuclear cells (PBMC) isolated using Lympholyte Poly (Cedarlane Labs, Burlington, Ontario, Calif.) by centrifugation for 35 min at 450 g. The PBMC were washed twice in PBS, counted, and the density adjusted to establish cultures with a cell density at 10^6/mL, using Roswell Park Memorial Institute 1640 medium containing penicillin-streptomycin and 10% heat-inactivated fetal bovine serum (Gibco, Thermo Fisher Scientific, Asheville, N.C.).
Serial dilutions of products or LPS were added to cultures at a volume of 20 μL, and cultures were then incubated at 37° C., 5% CO2 for 24 h. The highly inflammatory LPS from Salmonella enterica was used as a positive control for immune-cell activation at a dose of 10 ng/mL. In parallel, IL-2 was used as a positive control for natural killer (NK)-cell activation, at a concentration of 100 IU/mL. Untreated negative control cultures consisted of PBMC exposed to phosphate-buffered saline in the absence of test products. All treatments, including each dose of test product and each positive and negative control, were tested in triplicate. After 24 h, blood cells were isolated from each culture well and stained for 10 min with fluorochrome-labeled antibodies at the recommended concentration. PBMC were then fixed using 0.5% formalin. The fluorescence intensities for CD3, CD56, and CD69 were measured by flow cytometry, using an Attune acoustic-focusing flow cytometer (Thermo Fisher Scientific).
During data analysis, gating on forward and side scatter facilitated evaluation of the levels of CD69 expression on lymphocyte and monocyte subsets. The lymphocyte subpopulation was further analyzed for CD69 expression on CD3+ T lymphocytes, CD3+ CD56+ NKT lymphocytes, and CD3− CD56+ NK cells.

interleukin-2 [IL-2]: the “CD69 percent change compared to untreated control cultures, NK cells” value came out at 446±60.0%; the “CD69 percent change compared to untreated control cultures, NKT cells” value is on record as 150±25%; the “CD69 percent change compared to untreated control cultures, T lymphocytes” value is on record as 39±0.9%.

The record behind these values is patent publication US11779620B2 (priority 2020, dated 2023).
